## Antibody variant affinities, Ab-91 heavy chain, assay 2

Target: peptide PDVDLGDISGINAS, taken from heptad repeat 2 (HR2) of SARS-CoV-2 spike.

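The parent was found by panning a naive human phage display library on the peptide. Library AAYL51 holds single substitutions and randomly drawn double and triple substitutions in the CDRs. The assay is AlphaSeq: two haploid yeast populations carry antibody and antigen on their surface. Binding brings cells together so that they mate, and sequencing counts the barcode pairs among the diploids. Scores were corrected for input abundance and mapped to Kd with protein pairs of known affinity run in the same pool. Each pool was mated in three replicate cultures.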

Parent scFv Ab-91: VL joined to VH by a 15-residue (Gly4Ser)3 linker. Changes lie in the heavy chain CDRs alone.
VL: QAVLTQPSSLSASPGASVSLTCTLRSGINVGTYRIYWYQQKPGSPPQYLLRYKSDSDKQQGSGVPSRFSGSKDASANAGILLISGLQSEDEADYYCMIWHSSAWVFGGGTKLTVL
VH: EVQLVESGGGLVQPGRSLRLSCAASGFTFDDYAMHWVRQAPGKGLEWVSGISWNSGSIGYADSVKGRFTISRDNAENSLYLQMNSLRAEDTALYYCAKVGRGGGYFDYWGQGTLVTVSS

The parent's heavy chain CDRs are GFTFDDYAMH, GISWNSGSIGYADSVK, VGRGGGYFDY; each variant's own CDRs replace them letter for letter.
The Kd shown is the geometric mean over detected replicates; a lower Kd is a better binder.
"nd" means that the variant was in the library but no mating with the target was seen in any replicate; the authors take this as a sign of poor binding, and no number exists.
The list is sorted by this average, lowest first, undetected variants last.
Background: pairings of library AAYL51 with three empty control strains gave a value in 21% of cases (median 34 µM, 5th percentile 1.8 µM). Values in that range, when seen in few replicates, are hard to tell from nonspecific mating.

Read-out 6.8 nM (3 of 3 replicates), from GFCFDDYAMH, GISYNSGSIGYADSVK, VGRGGGYFDY.
Read-out 22 nM (3 of 3 replicates), from GFTFDDYAMH, GIAWNSGSRGYADSVK, VGYGGGYFDY.
Read-out 2.1 µM (3 of 3 replicates), from GFGFDDYAMH, GISWNSGSIGYADSFW, VGRGGGYFDY.
Read-out 2.2 µM (1 of 3 replicates), from GFVFDDYSMH, GISDNSGSIGYADSVK, VGRGGGYFDY.
Read-out 3.3 µM (1 of 3 replicates), from GFTFDDEAMH, GISWNSGSIDYADSVK, VGRGGGYFLY.
Read-out 7.9 µM (2 of 3 replicates), from QFTFDDYAMH, GISWNSWSIGYADSVK, VGRGGGYFDY.
Read-out 41 µM (1 of 3 replicates), from GFRFDDYAAH, GIIWNSGSIGYADSVK, VGRGGGYFDY.
Read-out 41 µM (2 of 3 replicates), from HFTFDDYAMH, GISWNFGSIGYADSVK, VGRGGGYFDC.
Read-out 62 µM (1 of 3 replicates), from GFTFDAYRMH, GESWNSGSIGYADSVK, VGRGGGYFDY.
Read-out 100 µM (2 of 3 replicates), from GFTFDDYFMH, GISWNSGSIGYAHSVK, VGRPGGYFDY.
Read-out 110 µM (2 of 3 replicates), from GFTFDNYAMH, GIWWNSGSIGYADSVK, VGRGGGYFDR.
Read-out 130 µM (1 of 3 replicates), from GFTFDLYAMH, GNGWNSGSIGYADSVK, VGRGGGYFDY.
Read-out 650 µM (3 of 3 replicates), from GFTFDDYAYH, GISWNSGKIGYADSMK, VGRGGGYFDY.
Read-out nd (0 of 3 replicates), from GFFFDDYAMH, GISWNSGSNGYADSVK, VGRVGGYFDY.
Read-out nd (0 of 3 replicates), from GFTFDDYAMH, GIWWNSGSIGYADSVK, VGPGGGYFDY.
Read-out nd (0 of 3 replicates), from MFTFDDYALH, GISWNSGSIGYADSVK, VGRGGGYFDY.
Read-out nd (0 of 3 replicates), from GFTFDDYAMH, GDSWNSGSIGYADKVK, VGRGGGYSDY.
Read-out nd (0 of 3 replicates), from GFTEDDCFMH, GISWNSGSIGYADSVK, VGRGGGYFDY.
Read-out nd (0 of 3 replicates), from GFTVDDYAMH, HISWNSGSIGYADDVK, VGRGGGYFDY.
Read-out nd (0 of 3 replicates), from GFTFDDYALH, GISWNSGSIGKADSVK, VGRGGGYFDY.
Read-out nd (0 of 3 replicates), from GFTSDDYAMH, GISWNSGSIGYADSVK, PGRGGGYFDY.
Read-out nd (0 of 3 replicates), from GFTFDDYAMH, GISWNSGSIGYADSVK, VGGGGGCFHY.
Read-out nd (0 of 3 replicates), from GFTFDDYAMH, GISWNSGSIWDATSVK, VGRGGGYFDY.
Read-out nd (0 of 3 replicates), from GFTFDDYAMH, GISWNSGKIGHADSVK, VGRGGGYFDY.
Read-out nd (0 of 3 replicates), from GFTFDDYAMH, GIFWNSGSIGYADSVK, VGRGGNYFDY.
Read-out nd (0 of 3 replicates), from GFTFDDYGMH, GISWNSGSIGYADCVK, VGRGFGYFDY.
Read-out nd (0 of 3 replicates), from GFTFDDYAMH, GISWNSGSIGYAMSVK, VGRGGGYYDY.
Read-out nd (0 of 3 replicates), from GFTFDDYAMH, GISWPSGSIGYADSVK, VDRGAGYFDY.
Read-out nd (0 of 3 replicates), from GFTFDDYAMN, GISWNSGSIGYADSVK, CRRGGGYFDY.
Read-out nd (0 of 3 replicates), from GFTLDDYAML, GISWNSGSIGYADSVK, VHRGGGYFDY.

Excerpt, the final 2 entries:

CDR-H1	CDR-H2	CDR-H3	Kd	seen in
GFTFDDYAMN	GISWNSGSIGYADSVK	CRRGGGYFDY	nd	0 of 3
GFTLDDYAML	GISWNSGSIGYADSVK	VHRGGGYFDY	nd	0 of 3

The measurements come from Engelhart et al. 2022 (doi:10.1038/s41597-022-01779-4) through the FLAb antibody collection.